We go through 1 compound from patent publication US5538968A, “Geneserine derivatives processes as cholinesterase inhibitors” (priority 1991, dated 1996).

In this assay the test system is acetylcholinesterase (AchE) in the brain. Kind of assay: Time course of inhibition of brain acetylcholinesterase (AchE) in the rat after s.c. administration (Ellman acetylthiocholine method, ex vivo). Further details: species or system rat (male Crl:CD (SD) BR). On the procedure:
1. Acetylcholinesterase inhibition
The time course of inhibition of acetylcholinesterase (AchE) in the brain was assessed in male Crl:CD (SD) BR rats (Charles River Italia), weighing between 150-250 g.
The test substances were administered by s.c. route, dissolved in 2 ml/kg of sterile saline. 9 animals/group/time were used.
Controls received the vehicle only.
At various intervals (10-60-120-240 min) after administration the rats were sacrificed by decapitation and the brains were rapidly removed, weighed and immediately placed in 1 ml of phosphate buffer 0.1M, pH 8.0, added with 1% Triton 100 (Merck).
After homogenization and centrifugation at 19943 g for 15 min at 4° C. the surnatant was separated and used for the determination of AchE activity according to the acetyltiocholine method described by Ellmann (Ellman G. L. et al., Biochem. Pharmacol. 7, 88, 1961).
The activity concentrations obtained (U/l surnatant) were individually corrected for the brain weight.
Compounds were given by s.c. route, dissolved in 2 ml/kg of saline. Brain
were homogenized in 2 ml of phosphate buffer 0.1 M, pH 8.0 added with 1%
Triton 100. AchE activity was determined in the surnatant after
centrifugation. Concentrations values were corrected for the brain weight
Statistical significance vs control ("t" Student's test): […]
For orientation: In Ellman's method for cholinesterases, released thiocholine reacts with DTNB.

Consider `CNC(=O)Oc1ccc2c(c1)[C@]1(C)CCN(C)[C@@H]1N2C` [Physostigmine], for which, where the note is “0.4 mg/kg s.c.”, the “Max % inhib. of brain acetylcholinesterase” value amounted to 53%. Also, the “T max (time of the maximal inhibition)” value (0.4 mg/kg s.c.) was found to be 10 min. Besides, the “Brain acetylcholinesterase % inhib.” value reads like this: (0.4 mg/kg s.c., 10 min, ** P < 0.01) 53%; (0.4 mg/kg s.c., 60 min, ** P < 0.01) 51%; (0.4 mg/kg s.c., 120 min, ** P < 0.01) 34%; (0.4 mg/kg s.c., 240 min) 11%. The “Factor of reduction of effect 120 min. after the treatment” value (s.c., 120 min vs peak) was 1.5-2. The “Onset of effect compared with CHF 2060” value (s.c., vs 9 mg/kg CHF 2060, comparable AUC and maximum inhibition) is reported as “more rapid effect”.
